Source: PubChem BioAssay (National Center for Advancing Translational Sciences (NCATS))
Nrf2 inh – inhibitors of Nrf2 signaling; A549 ARE-Fluc reporter, luciferase luminescence, 18-24 h; Potency, µM (highest dose often 46 µM), for the others: top-dose activity change, negative = inhibition, usual class: inhibitors; 360,000 tested, 2.1% active; AID 504444; also: potency is read from the fitted curve at half-maximal effect; % is scaled to controls: 0 for no effect and ±100 for the full control effect; nearly all actives have a fitted effect of over 60% in size
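Quantitative HTS in A549 cells stably bearing an antioxidant response element-firefly luciferase construct. Inhibition of Nrf2-driven transcription was scored by luminescence after 18-24 h of compound exposure at 37 °C.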
miR-21 reporter – raises the signal of a miR-21 reporter; AID 2288; 340,000 tested, under 10 active; Potency, µM (doses to about 38.3 µM), inactives show at the top dose reporter change, positive = more light; HeLa miR-21 FLuc reporter, luciferase, 48 h; active = well fitted rising curve with a large enough effect; inconclusive = small, poorly fitted or top-dose-only effect; inactive = no such curve, though single readings can be large or run the other way;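 note: % of control where 0% means no effect; miR-21 action dims this reporter so a rising signal means less miR-21 action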
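HeLa cells endogenously expressing miR-21, stably carrying CMV-driven firefly luciferase with a downstream miR-21 binding site, 2000 cells/well. Titrations up to approximately 40 uM, 48 hours; luciferase luminescence read.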
ClpP mod – qHTS Assay for Activators of ClpP; purified B. subtilis ClpP, FRET peptide cleavage, 20 min; Potency, µM (titrated, usually from 57.5 µM), for inactives: at the top dose activity change, negative = active; ATP-dependent Clp protease proteolytic subunit (Bacillus subtilis (strain 168)), P80244; 340,000 tested, 1.9% active; active = well fitted falling curve with a large enough effect; inconclusive = small, poorly fitted or top-dose-only effect; inactive = no such curve, though single readings can be large or run the other way; also: potency is read from the fitted curve at half-maximal effect; the source files actives as falling curves though it sought activators and does not explain the sign; nearly all actives have a fitted effect of over 65% in size
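ClpP 10 microg/mL final, pH 8 Tris/KCl buffer with BSA, glycerol, Tween-20; compound pinned in; FRET-FV substrate; RT 20 min; Ex320/Em430; ΔFRET vs ADEP 5.8 microM, DMSO, no enzyme.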
A549 tox – A549 cytotoxicity, counter-screen for Nrf2 inhibitors | A549 ARE-Fluc cells, CellTiter-Fluor viability, 18-24 h | Potency, µM (doses to about 46 µM), without a hit: at the highest dose activity change, negative = cytotoxicity, most hits filed as inhibitors | 390,000 tested, 0.16% active | AID 504648; also: potency is read from the fitted curve at half-maximal effect; % is scaled to controls: 0 for no effect and ±100 for the full control effect
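A549 ARE-Fluc cells in 5% FBS OPTI-MEM, 5000 cells/well, rested 2 h then exposed to compounds in concentration-response for 18-24 h at 37 °C. Viability by CellTiter-Fluor fluorescence (Ex 405/Em 525) after 30 min; luciferase luminescence (BugLite, 15 min, RT) read afterwards.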
IL2 activator – activators of IL-2; activation, % (series mostly up to about 46 µM); IL-2 activation reporter assay, cell-based qHTS; stimulated with anti-CD3/CD4/CD28 beads; in transgenic mouse T cells; 360,000 tested, 0.065% active; in the data active = activation above about 50%; inconclusive = mostly about 30% to 49%; also: 0% is about no effect
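Unstimulated transgenic mouse T cells; 60-min compound exposure; bead-based TCR/CD4/CD28 stimulation; 18 h culture, 37 degrees C; dual fluorescence (EGFP, DsRed) plate cytometry.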
Nrf2 activator – Nrf2 pathway activation. AREc32 ARE-luciferase reporter (MCF7-derived line), luminescence, 24 h. Potency, µM (series often up to 46.1 µM), for the others: at the top dose activation, usual class: activators. 410,000 tested, 0.31% active; also: potency is read from the fitted curve at half-maximal effect; % of control where 0% means no effect; nearly all actives have a fitted effect of over 65% in size
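Luciferase luminescence (Steady-Glo, 30 min at room temperature) served as the read-out of ARE activation in AREc32 cells treated with compounds for 24 hr at 37 deg C.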
The depositor's hits bear a star; ? = inconclusive; · = not tested or not shown. This is a sample that favours compounds with a hit; in the whole collection about 3.7% have one here. Unless noted, calls follow the shape of the dose curve; as a rule, active = well fitted curve in the direction sought with a large enough effect; inconclusive = small, poorly fitted or top-dose-only effect, or another doubt; inactive = no such curve, though single readings can be large; an effect the other way counts as inactive or inconclusive.

Protein sequences, listed by entry. Tags and fused reporters are not part of them.
ATP-dependent Clp protease proteolytic subunit (Bacillus subtilis (strain 168)), P80244, UniProt P80244, whole entry, looked up: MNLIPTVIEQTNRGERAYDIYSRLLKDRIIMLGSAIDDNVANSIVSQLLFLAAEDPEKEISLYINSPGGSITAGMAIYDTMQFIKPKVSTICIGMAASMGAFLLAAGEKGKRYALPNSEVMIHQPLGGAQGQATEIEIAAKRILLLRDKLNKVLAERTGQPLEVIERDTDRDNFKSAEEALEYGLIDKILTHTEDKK

SMILES | Nrf2 inh | miR-21 reporter | ClpP mod | A549 tox | IL2 activator | Nrf2 activator
O=C(c1ccccc1)N1N=C(c2ccccc2)CC1c1ccccc1[N+](=O)[O-] (centres undefined) | 6.8% | -6.3% | 25.1µM* | 4.9% | 3.9 | -0.1%
O=C(Cc1ccc(NC(=O)N2CCCCc3ccccc32)cc1)Nc1ccccc1Br | ? | 12.3% | -11.3% | -1.6% | · | 3.1%
CCCn1c2ccccc2c2cnn(CC(=O)N(CCCOC)Cc3ccco3)c(=O)c21 | ? | 14.8% | 5.4% | -0.8% | · | 3.2%
COc1ccc(C)cc1NC(=O)CSc1nnc(COc2ccc(Cl)cc2)n1Cc1ccco1 | ? | 26.5% | 1.0% | -20.0% | -2.5 | 6.8%
Clc1ccc(OCc2nnc(SCc3nc4ccccc4[nH]3)n2Cc2ccco2)cc1 | 18.4µM* | ? | -6.6% | ? | -3.1 | 3.1%
O=C(CSc1nnc(COc2ccc(Cl)cc2)n1Cc1ccco1)c1ccccc1F | 13µM* | -10.3% | 1.0% | ? | -1.0 | 0.1%
Clc1cccc(-c2nnc(SCc3nc4ccccc4[nH]3)n2Cc2ccco2)c1 | -20.3% | 4.3% | -4.2% | -16.5% | -2.5 | 2.7%
CCn1c(COc2ccc(C)cc2)nnc1SCc1nc2ccccc2[nH]1 | 18.4µM* | 15.3% | -2.4% | -27.4% | -0.7 | 3.2%
COc1ccccc1CCNC(=O)c1ccc2c(c1)c(C)c(C)n2C | ? | -13.1% | -9.1% | 0.0% | · | 0.7%
NC1C(N)C(N)C1N (centres undefined) | · | · | -1.2% | · | · | ·
CCN1CCN(c2nnc(-n3cccc3C(=O)NCc3ccccc3OC)s2)CC1 | ? | -9.3% | -3.6% | -3.5% | · | 0.7%
CCOc1ccccc1NC(=O)CCNS(=O)(=O)c1ccc2c(c1)CCN2C(=O)C1CC1 | · | -4.4% | -5.2% | 4.2% | · | -0.7%
c1ccc(N2CCN(c3c4c(nc5ncnn35)CCC4)CC2)cc1 | 11.6µM* | -10.7% | 0.7% | -13.6% | -2.1 | 0.0%
Cc1cc(N2CCN(c3ccccc3)CC2)n2ncnc2n1 | 20.6µM* | 4.5% | -6.8% | -5.1% | -0.2 | 0.0%
FC(F)(F)c1ccc(N2CCN(c3cc(-c4ccccc4)nc4ncnn34)CC2)nc1 | 14.6µM* | -5.4% | 22.6% | ? | 12.7 | 6.0%
COc1cccc(N2CCN(c3c4c(nc5ncnn35)CCC4)CC2)c1 | 13µM* | 11.8% | 0.3% | -7.8% | -2.7 | -0.8%
Cc1cc(N2CCN(C/C=C/c3ccccc3)CC2)n2ncnc2n1 | ? | 4.5% | 0.7% | -6.3% | -1.5 | 2.9%
COc1cccc(N2CCN(c3ncccn3)CC2)c1 | ? | -48.6% | -3.6% | -4.7% | -1.0 | 2.7%
COc1cc2c(NC3CCN(C)CC3)nc(N3CCCN(C)CC3)nc2cc1OCCCCCN(C)C | · | · | 4.4% | · | · | ·
COc1cc(C)ccc1OCCCn1c(-c2ccc(Cl)cc2)nc2ccccc2c1=O | 13.7% | -2.7% | 1.6% | 8.1% | · | -0.2%
O=C(COc1ccccc1Cl)OCc1cc(=O)n2nc(C3CC3)sc2n1 | ? | 0.2% | -0.9% | 6.6% | · | -0.3%
O=C(CN1C(=O)COc2ccc(S(=O)(=O)N3CCOCC3)cc21)N1CCN(c2ccccc2)CC1 | 16.3% | 1.6% | -0.8% | -0.8% | · | 0.3%
O=C(c1ccccc1)c1c2c(cc3sc4ccccc4[n+]13)-c1cccc3cccc-2c13 | 20.6µM* | 26.7% | -6.6% | 16.4µM* | 2.1 | 3.2%
COc1ccc(CCN2C(=O)CSC2=Nc2ccc(C(C)C)cc2)cc1OC | 16.4µM* | ? | · | -21.1% | -1.2 | 2.6%
COc1ccc(N=C2SCC(=O)N2CCc2ccc(OC)c(OC)c2)cc1 | ? | -0.4% | 0.0% | 0.6% | 0.3 | 0.4%

Record cards, from the list above. Values in the order: Nrf2 inh	miR-21 reporter	ClpP mod	A549 tox	IL2 activator	Nrf2 activator
Shown for COc1cccc(N2CCN(c3c4c(nc5ncnn35)CCC4)CC2)c1 → 13µM*	11.8%	0.3%	-7.8%	-2.7	-0.8%
Shown for CCN1CCN(c2nnc(-n3cccc3C(=O)NCc3ccccc3OC)s2)CC1 → ?	-9.3%	-3.6%	-3.5%	·	0.7%
Shown for COc1cc(C)ccc1OCCCn1c(-c2ccc(Cl)cc2)nc2ccccc2c1=O → 13.7%	-2.7%	1.6%	8.1%	·	-0.2%
Shown for NC1C(N)C(N)C1N (centres undefined) → ·	·	-1.2%	·	·	·

Other records follow.
SMILES | Nrf2 inh | miR-21 reporter | ClpP mod | A549 tox | IL2 activator | Nrf2 activator
O=C(Nc1ccc(S(=O)(=O)NCc2ccccc2)cc1)C1CCCCC1 | -17.4% | -3.4% | 25.1µM* | -5.9% | -3.0 | -0.2%
CC(=O)Nc1ccc(S(=O)(=O)NCC2CCC(C(=O)NCc3ccccc3)CC2)cc1 (centres undefined) | ? | -5.8% | 1.6% | 5.7% | -0.2 | 0.3%
CN(C1CCCCC1)S(=O)(=O)c1ccc(NC(=O)C2CCCCC2)cc1 | 23.1µM* | 2.1% | 0.4% | -16.1% | 2.2 | 0.2%
COc1ccc(Cl)cc1C(=O)Nc1ccc(NC(C)=O)cc1 | 2.2% | -18.6% | · | -5.2% | 0.7 | 3.7%
CC(=O)Oc1c(I)cc(I)cc1C(=O)Nc1ccc(Cl)cc1 | 23.1µM* | ? | -3.0% | ? | -0.5 | 0.0%
COc1ccc(C(=O)/C(C#N)=N/Nc2cccc([N+](=O)[O-])c2)cc1 | 23.1µM* | 19.9% | 0.3% | ? | -1.1 | ?
N#C/C(=N\Nc1cccc(Cl)c1)C(=O)c1ccccc1 | ? | 15.9% | -0.8% | 18.4µM* | -1.0 | 4.3%
N#C/C(=N\Nc1ccc(Cl)cc1)C(=O)c1ccsc1 | 16.4µM* | 21.7% | · | ? | -3.7 | 5.8%
N#C/C(=N\Nc1ccccc1Cl)C(=O)c1ccccc1 | ? | -9.6% | -1.5% | ? | -1.5 | 3.6%
N#Cc1ccccc1NC(=O)Nc1cccc(Cl)c1 | ? | -6.2% | 28.2µM* | -2.9% | 0.4 | -0.9%
CCCCn1cc(S(=O)(=O)c2ccccc2)c(=O)c2cc(F)c(N3CCC(C)CC3)cc21 | 13.9% | 1.9% | -8.5% | -5.8% | · | -0.2%
c1nc(N2CCC(N3CCCC3)CC2)c2cc(-c3ccc4c(c3)OCO4)ccc2n1 | -2.2% | · | · | 1.6% | · | ·
Fc1ccc(-c2cc(-c3ccccc3)c3c(n2)-c2cc(F)ccc2OC3)cc1 | 1.9% | -12.0% | ? | 13.2% | · | -0.6%
CCOc1ccccc1CNS(=O)(=O)c1cc2c(cc1C)NC(=O)CO2 | · | 24.7% | 2.2% | 0.2% | · | 4.9%
Cc1nc(Nc2ccc(S(=O)(=O)N3CCCCC3C)cc2)c2nnn(Cc3ccccc3)c2n1 (centres undefined) | ? | -5.1% | 31.6µM* | -27.5% | -0.1 | 0.1%
O=C(N/C=N/OCc1ccc(Cl)cc1Cl)NOCc1c(Cl)cccc1Cl | 25.9µM* | -9.8% | -3.0% | -18.8% | -0.9 | 0.3%
CO/N=C/NC(=O)NOCc1ccc(Cl)cc1Cl | 11.0% | -7.4% | 0.2% | -2.8% | -0.1 | 0.9%
CCOC(=O)C[n+]1cccc(Br)c1 | · | · | -1.5% | · | · | ·
O=C(COc1cccc(NC(=O)c2cccc([N+](=O)[O-])c2)c1)c1ccc(F)cc1 | ? | 26.4% | -1.1% | -9.6% | -1.1 | 0.5%
O=C(Nc1cccc(Cl)c1)c1cccc(Oc2ccc([N+](=O)[O-])cc2Cl)c1 | 20.6µM* | 10.5% | -2.0% | -24.8% | -0.6 | -0.5%
